Consider 1 compound from US20130216590A1, “TOPICAL ANTIVIRAL FORMULATIONS FOR PREVENTION OF TRANSMISSION OF HSV-2” (priority 2010, published 2013).

The structures appear in SMILES notation.

The assay deals with HSV-1 strain F (HSV-1F). Description: Human ex vivo tonsillar tissue, HSV DNA release by real-time PCR. The class given is cell-based. To be noted: 66 μg/ml.

Regarding `C[C@H](Cn1cnc2c(N)ncnc21)OCP(=O)(O)O` [tenofovir, (R)-9-(2-phosphonylmethoxypropyl)adenine], the “reduction of replication compared to infected donor matched-untreated tissue” value (HSV-1F) stood at 99±0.1%. Further, the “release of viral DNA in culture medium” value (day 9 post infection, IQR 3.9-4.3, untreated 8) is reported as 4 log10 DNA copies/ml.
